Literature values as cited in patent publication US20150272935A1, “Use of a Factor Xa Inhibitor for Treating and Preventing Bleeding Events And Related Disorders in Patients Having Sensitivity to Vitamin K Antagonists Used As Anticoagulants” (priority 2014, published 2015).

Amino acid sequences for entries named in this document (tags omitted). Residues count along the entry.
UniProt P00742, 41-179 partner limits assumed: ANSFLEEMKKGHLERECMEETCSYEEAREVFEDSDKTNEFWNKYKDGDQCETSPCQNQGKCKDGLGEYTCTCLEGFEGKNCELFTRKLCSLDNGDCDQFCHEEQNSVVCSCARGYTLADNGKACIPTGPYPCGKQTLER
UniProt P00742, 235-488 limits assumed: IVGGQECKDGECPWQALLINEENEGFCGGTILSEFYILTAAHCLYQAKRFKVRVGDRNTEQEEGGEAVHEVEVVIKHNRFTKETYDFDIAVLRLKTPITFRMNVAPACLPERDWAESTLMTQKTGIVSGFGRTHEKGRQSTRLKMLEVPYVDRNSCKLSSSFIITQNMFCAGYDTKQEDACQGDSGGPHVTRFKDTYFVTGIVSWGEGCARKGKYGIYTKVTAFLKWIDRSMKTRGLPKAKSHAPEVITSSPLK

Molecular target: free FXa (Homo sapiens, UniProt P00742)
Conditions: selectivity

Which “more potent inhibition of FXa than other biologically relevant serine proteases” value does the source give for CN1CCc2nc(C(=O)N[C@@H]3C[C@@H](C(=O)N(C)C)CC[C@@H]3NC(=O)C(=O)Nc3ccc(Cl)cn3)sc2C1.Cc1ccc(S(=O)(=O)O)cc1 [Edoxaban] here?
The value was > 10,000 fold.
